Results: patent publication US8993349B2, “Method for enhancing transport of semiconductor nanocrystals across biological membranes” (Life Technologies Corporation, priority 2000, dated 2015)

Chains of the proteins cited; added tags and fusions are not shown. Lines headed by an entry give the natural chain unless they say otherwise; changes in a name come on top.
UniProt P08482: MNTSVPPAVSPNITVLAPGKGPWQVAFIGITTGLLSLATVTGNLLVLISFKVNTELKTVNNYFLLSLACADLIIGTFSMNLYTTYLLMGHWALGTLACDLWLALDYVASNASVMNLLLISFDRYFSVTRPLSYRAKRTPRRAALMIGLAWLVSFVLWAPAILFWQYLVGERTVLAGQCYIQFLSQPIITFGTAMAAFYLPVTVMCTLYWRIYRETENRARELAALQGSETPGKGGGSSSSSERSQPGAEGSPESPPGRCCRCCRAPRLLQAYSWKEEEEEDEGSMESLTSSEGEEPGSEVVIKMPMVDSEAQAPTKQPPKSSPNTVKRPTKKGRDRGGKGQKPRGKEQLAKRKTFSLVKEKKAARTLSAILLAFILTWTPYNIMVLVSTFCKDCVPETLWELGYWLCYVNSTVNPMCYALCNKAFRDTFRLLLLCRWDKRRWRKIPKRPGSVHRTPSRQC

Molecular target: M1 muscarinic receptor (Rattus norvegicus, UniProt P08482)
Details: CHO M1WT3 cells, 5 minutes at room temperature, calcium indicator dye imaging

calcium response of unencoded or encoded cells: can stimulate the calcium response
SMILES: C[N+](C)(C)CCOC(N)=O [carbachol]
